{"source": "patent US20020136691A1", "about": "“Pharmacological evaluation test (PET) in animals for continuous assessment of physiological functions” (priority 2000, published 2002)", "tested_on": "Sprague Dawley rats", "experiment": "CNS motility/activity recording by DSI telemetry", "assay_type": "in vivo", "conditions": "for Motility, % Change from Control: female rats", "procedure": "At the same time as cardiovascular recording was occurring, the motility of the rats in the metabolism cages was also determined using the DSI telemetry equipment. Recording is continuous over four days of compound dosing.\nActivity was evaluated as averaged day and night values. The values of the first eleven hours after start of treatment were averaged to give a value for “day”; the values of the second eleven hours were averaged to give a value for “night”. These day and night values as well as the difference “night-day” and the percent difference from day were summarized. Kruskal-Wallis tests were performed for comparing difference and percent difference in the three treatment groups.", "note": "Marks after values point to notes of the source that are not given here.", "data": [{"molecule": "C[C@H](N)Cc1ccccc1", "note": "[d-amphetamine]", "values": [{"measurement": "Motility, day versus night", "setting": "2 and 8 mg/kg p.o., subacute", "result": "increased during the day as compared to the night"}, {"measurement": "Motility, % Change from Control", "setting": "2 mg/kg p.o., day 1, period day", "result": "+391* %"}, {"measurement": "Motility, % Change from Control", "setting": "2 mg/kg p.o., day 1, period night", "result": "+8%"}, {"measurement": "Motility, % Change from Control", "setting": "2 mg/kg p.o., day 2, period day", "result": "+405* %"}, {"measurement": "Motility, % Change from Control", "setting": "2 mg/kg p.o., day 2, period night", "result": "+5%"}, {"measurement": "Motility, % Change from Control", "setting": "2 mg/kg p.o., day 3, period day", "result": "+390* %"}, {"measurement": "Motility, % Change from Control", "setting": "2 mg/kg p.o., day 3, period night", "result": "−31", "unit": "%"}, {"measurement": "Motility, % Change from Control", "setting": "2 mg/kg p.o., day 4, period day", "result": "+320* %"}, {"measurement": "Motility, % Change from Control", "setting": "2 mg/kg p.o., day 4, period night", "result": "−47", "unit": "%"}, {"measurement": "Motility, % Change from Control", "setting": "8 mg/kg p.o., day 1, period day", "result": "+194* %"}, {"measurement": "Motility, % Change from Control", "setting": "8 mg/kg p.o., day 1, period night", "result": 0, "unit": "%"}, {"measurement": "Motility, % Change from Control", "setting": "8 mg/kg p.o., day 2, period day", "result": "+175* %"}, {"measurement": "Motility, % Change from Control", "setting": "8 mg/kg p.o., day 2, period night", "result": "−22", "unit": "%"}, {"measurement": "Motility, % Change from Control", "setting": "8 mg/kg p.o., day 3, period day", "result": "+182* %"}, {"measurement": "Motility, % Change from Control", "setting": "8 mg/kg p.o., day 3, period night", "result": "−29", "unit": "%"}, {"measurement": "Motility, % Change from Control", "setting": "8 mg/kg p.o., day 4, period day", "result": "+255* %"}, {"measurement": "Motility, % Change from Control", "setting": "8 mg/kg p.o., day 4, period night", "result": "−55", "unit": "%"}]}]}
